Test system: SVR cells
Test: SVR cell assay: cell numbers counted at 48 hours, percent inhibition versus control
Type: cell-based, murine
Conditions: for Percent Inhibition at a Specified Density (μg/ml): 1: 1 μg/ml, 10,000 SVR cells in 24 well dish; for Percent Inhibition at a Specified Density (μg/ml): 3: 3 μg/ml, 10,000 SVR cells in 24 well dish; for Percent Inhibition at a Specified Density (μg/ml): 6: 6 μg/ml, 10,000 SVR cells in 24 well dish

Substance | Percent Inhibition at a Specified Density (μg/ml): 1 [%] | Percent Inhibition at a Specified Density (μg/ml): 3 [%] | Percent Inhibition at a Specified Density (μg/ml): 6 [%]
1,3-Bis(4-biphenyl)propenone | 19.2 | 0.0 | 0.0
1-(4-Biphenyl)-3-phenylpropenone | 10.4 | 34.7 | 0.0
3-(4-Biphenyl)-1-phenylpropenone | 24.9 | 12.9 | 41.4

— patent US7432303B2, “Chalcone and its analogs as agents for the inhibition of angiogenesis and related disease states” (James and Emory University, priority 1999, dated 2008)
